Measured values from article PMC4914250, “Cancer therapeutic approach based on conformational stabilization of mutant p53 protein by small peptides” (Oncotarget, 2016).

System: mutp53
Assay: Summary score of peptide functional screens
Details: overall score over conformation, DNA binding, viability and PCR screens

**Q.** How did the SCORE turn out when “LTFEHYWAQLTS [pCAP-8, synthesized peptide of the functional screen]” was run?
**A.** Its SCORE is 0.
